# Melting point values, as collected for the OPERA models

Source: data files of OPERA 2.9 (Mansouri et al.), github.com/kmansouri/OPERA.

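The numbers are reported measurements, compiled and curated for the OPERA QSAR suite. The files give a single number for a compound and property, which may rest on several reports. Conditions of the individual experiments are not part of the data. A value may pool stereoisomers or salt forms, and the file does not say which form was measured. Some entries may be limits or estimates that an upstream database listed as plain numbers.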

The melting point is given in degrees Celsius.

compound | melting point (°C)
Cc1ccc(S(=O)(=O)N(C)c2ccc(O)cc2)cc1 | 138
Cc1cc(=O)n2nc(N)sc2n1 | 336
CCOC(=O)Nc1cccc(C(=O)O)c1 | 197
COc1ccccc1NC(=O)c1cc2ccccc2c(N=Nc2cc(Cl)ccc2Cl)c1O | 265
Nc1cccc(Cl)c1N1CCOCC1 | 155
Clc1cc(Oc2cc(Cl)c(Cl)c(Cl)c2Cl)c(Cl)c(Cl)c1Cl | 126
CCOC(=O)CNC(=O)C(C(C)C)N(C(C)=O)c1cccc(C(F)(F)F)c1 (centres undefined) | 95.3
N#Cc1ccc(SCCCS(=O)(=O)[O-])cc1C#N.[Li+] | 237.9
CC(=O)Nc1ccc(F)cc1-c1ccc(Cl)c(Cl)c1 | 144.2
CCCCOc1cccc(F)c1F | -4.5
CCCCCCCCCCCCCCCCOP(=O)([O-])O.[K+] | 154.9
COc1ccc(Cl)cc1CC(=O)O | 132
O=C(O)c1cc(S(=O)(=O)N2CCCCC2)ccc1Cl | 215
Cc1ccc(SCCC(=O)O)cc1C | 36
CC(C)CCOC(=O)c1ccccc1O | 5.4
CC=CC=C1C(C)=CC(=O)CC1(C)C | -59.2
S=c1[nH]nc(C2COc3ccccc3O2)o1 (centres undefined) | 153
CC1(C)SCC(C(=O)O)NC1=O (centres undefined) | 206
Nc1cc(Cl)ccc1Sc1ccccc1 | 63
COc1ccccc1C=NO | 87
Fc1ccc(SCc2ccc(Cl)cc2)cc1 | 36
C=CC(=O)NCC(OC)OC | -38
C=CCSc1nnc(N)s1 | 120
C=CC(=C)CCC=C(C)C | -10
O=C(O)/C=C/c1ccc([N+](=O)[O-])o1 | 231
CN(C)c1nc(Cl)c(C=O)s1 | 110
CCN1CCCCCC1=O | -19
Cc1oc(-c2cccs2)nc1CCl | 66
CCC(C)NS(=O)(=O)c1cccc(C(=O)O)c1 (centres undefined) | 156
CC[C@@H]([C@H](C)OCc1ccccc1)N(N)C(=O)Nc1ccc(N2CCN(c3ccc(OC[C@@H]4CO[C@@](Cn5cncn5)(c5ccc(F)cc5F)C4)cc3)CC2)cc1 | 143.9
COc1ccc(NC(=O)c2ccccc2N)c(OC)c1 | 155
O=c1nc(Cl)sc2ccccc12 | 109
COCCOCCOCC(=O)O | -29
N#CC(=O)c1cccc(Cl)c1Cl | 64
Nc1cc(S(=O)(=O)O)cc(S(=O)(=O)O)c1[O-].[K+] | 215
Cc1cc(C)cc(C(=O)Cl)c1 | 4
CCn1c(-c2ccc(C(C)(C)C)cc2)n[nH]c1=S | 131
O=C(O)c1ccccc1NS(=O)(=O)c1ccc(F)cc1 | 166
NC(CC(=O)O)c1cccs1 (centres undefined) | 220
N#CCC(=O)NC1CCCCC1 | 133
CC(C)CCOc1ccc([C@]2(C)N=C(O)N=C2O)cc1 | 111
O=C(O)CCC1NC(=O)NC1=O (centres undefined) | 170
CC(C)c1cc(C(=O)O)c2ccccc2n1 | 142
C=CCn1c(N)c(C(=O)OCC)sc1=S | 119
Cl.NC(=O)Nc1cccc(N)c1 | 115
NCC(c1ccccc1)c1c[nH]c2ccccc12 (centres undefined) | 124
O=C(O)c1cnc2sccn2c1=O | 270
O=C(O)Cn1nnc2ccccc21 | 211
CCCCCCCC(=O)OCC(CCC)CCCCC (centres undefined) | -38.9
Cc1ccc2[nH]nc(C(=O)O)c2c1 | 274
Nc1ccc(N2CCCC2)nc1 | 84
O=C(O)CCNCC(=O)O | 196.5
Cc1ccc(O)c(F)c1F | 36.5
Nc1nc(CC(=O)c2ccccc2)cs1 | 158
COc1ccc(C(=O)NCCCC(=O)O)cc1 | 123

A selection of 5 entries from above:

compound | melting point (°C)
CCC(C)NS(=O)(=O)c1cccc(C(=O)O)c1 (centres undefined) | 156
CC(C)c1cc(C(=O)O)c2ccccc2n1 | 142
C=CC(=O)NCC(OC)OC | -38
COc1ccc(Cl)cc1CC(=O)O | 132
Cc1oc(-c2cccs2)nc1CCl | 66